From patent US11963941B2, “Use of a fasting mimicking diet to enhance the efficacy of antiestrogens in cancer” (UNIVERSITA' DEGLI STUDI DI GENOVA, priority 2016, dated 2024) come the findings set out here.

Molecules are shown by their SMILES.

The assay has as its system ZR-75-1 cells.
Where [1] appears, read: FMD + tamoxifen 5 μM, 24 h, FIG. 3.

As for `CC/C(=C(\c1ccccc1)c1ccc(OCCN(C)C)cc1)c1ccccc1` [tamoxifen], under setting [1], the 4E-BP1 phosphorylation state entry is given as “marked accumulation of the unphosphorylated form”; the “mTOR activity (levels of phosphorylated p70S6K and eIF4E)” value was “marked inhibition of mTOR activity”. Besides, under “FMD + tamoxifen 5 μM, 24 h, FIG. 6B”, the “RAD51 expression at the protein level” value was “strong RAD51 downregulation”. Also, where the note is “FMD in combination with tamoxifen 5 μM, FIG. 3”, the HER2 expression result is “marked reduction in HER2 expression”.
